# Columns and labels:
# Protein sequences, listed by entry. Tags and fused reporters are not part of them. Residues count along the entry.
# UniProt P08473, 52-750 limits assumed: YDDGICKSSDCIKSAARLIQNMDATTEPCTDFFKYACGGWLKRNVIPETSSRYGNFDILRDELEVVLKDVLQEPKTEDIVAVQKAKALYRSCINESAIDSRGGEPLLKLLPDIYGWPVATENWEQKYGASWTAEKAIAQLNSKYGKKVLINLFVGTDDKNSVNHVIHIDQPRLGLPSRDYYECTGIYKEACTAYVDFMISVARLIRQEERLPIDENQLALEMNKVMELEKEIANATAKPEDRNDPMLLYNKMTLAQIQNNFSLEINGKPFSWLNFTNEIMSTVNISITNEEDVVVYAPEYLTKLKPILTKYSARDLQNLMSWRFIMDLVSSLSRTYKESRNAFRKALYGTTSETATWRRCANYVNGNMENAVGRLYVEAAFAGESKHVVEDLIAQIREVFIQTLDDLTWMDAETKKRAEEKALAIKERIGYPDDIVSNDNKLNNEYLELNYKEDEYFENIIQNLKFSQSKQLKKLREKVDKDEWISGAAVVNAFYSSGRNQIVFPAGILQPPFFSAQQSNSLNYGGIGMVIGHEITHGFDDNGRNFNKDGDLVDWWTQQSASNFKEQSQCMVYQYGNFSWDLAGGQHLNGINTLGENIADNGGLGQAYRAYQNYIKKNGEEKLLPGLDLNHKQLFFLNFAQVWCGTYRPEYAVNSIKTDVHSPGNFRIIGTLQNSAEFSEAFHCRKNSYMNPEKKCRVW
# UniProt Q495T6, 49-779 limits assumed: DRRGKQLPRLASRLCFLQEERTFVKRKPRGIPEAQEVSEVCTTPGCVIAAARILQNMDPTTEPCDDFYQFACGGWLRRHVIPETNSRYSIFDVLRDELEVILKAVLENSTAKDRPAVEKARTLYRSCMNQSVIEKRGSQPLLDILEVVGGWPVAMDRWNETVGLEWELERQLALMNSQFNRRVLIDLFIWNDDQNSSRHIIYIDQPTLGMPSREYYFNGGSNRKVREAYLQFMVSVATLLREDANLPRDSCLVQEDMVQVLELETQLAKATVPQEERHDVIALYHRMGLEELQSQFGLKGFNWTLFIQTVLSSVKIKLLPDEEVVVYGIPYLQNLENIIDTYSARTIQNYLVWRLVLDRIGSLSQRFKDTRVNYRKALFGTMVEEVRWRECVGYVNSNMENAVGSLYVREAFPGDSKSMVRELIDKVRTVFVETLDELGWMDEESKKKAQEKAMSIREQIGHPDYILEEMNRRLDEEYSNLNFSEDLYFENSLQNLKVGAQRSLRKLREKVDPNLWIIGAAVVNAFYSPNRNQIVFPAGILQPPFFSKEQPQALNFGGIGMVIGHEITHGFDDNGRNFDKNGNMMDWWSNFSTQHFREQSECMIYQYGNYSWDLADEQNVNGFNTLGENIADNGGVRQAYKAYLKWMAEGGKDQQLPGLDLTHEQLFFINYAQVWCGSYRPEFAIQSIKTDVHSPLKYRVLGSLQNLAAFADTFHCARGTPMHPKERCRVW
# [1] = target: soluble, human recombinant NEP (Homo sapiens, UniProt P08473); assay: In-vitro investigation of the NEP inhibitory action (fluorescence-quenched Big-ET-1 analogue, HPLC); conditions: read-out: IC50 (NEP)
# Experimental: 1. In-Vitro Investigation of the NEP Inhibitory Action of the Substances
# In this test, the measure of the inhibitory activity of the substances which was determined was their IC50 value. The IC50 value of a test substance having enzyme-inhibitory activity is that concentration of the test substance at which 50% of the enzymatic activity of the NEP is blocked.
# 70 μl test buffer, 10 μl enzyme working solution and 10 μl test substance solution were mixed in an Eppendorf vessel and preincubated at 37° C. for 15 minutes (=min.). Then 10 μl substrate stock solution was added and the test batch was incubated for 60 minutes at 37° C. The enzymatic reaction was then ended by 5-minutes' heating to 95° C. […]
# All the peptides were detected by absorption at 214 nm and by fluorescence with an excitation wavelength of 328 nm and an emission wavelength of 393 nm.
# Upon enzymatic cleavage of the peptide, the fluorophore (=Mca) and the quencher end up in different peptide fragments, which reduces the effectiveness of the quench. […] The increasing fluorescence signal (corresponds to the area, A) of the HPLC peak of the peptide with the non-quenched Mca fluorophore is used for the further calculations. […]
# All the samples were measured in duplicates and average values were calculated therefrom. […]
# [2] = target: His6-tagged hSEP ectodomain (Homo sapiens, UniProt Q495T6); assay: In vitro investigation of the hSEP-inhibitory action (fluorescence-quenched Big-ET-1 analogue, HPLC); conditions: read-out: IC50 (hSEP)
# Experimental: 2. In Vitro Investigation of the hSEP-Inhibitory Action of the Substances
# In this test, the measure of the inhibitory activity of the substances which was determined was their IC50 value. The IC50 value of a test substance having enzyme-inhibitory activity is that concentration of the test substance at which 50% of the enzymatic activity of the hSEP is blocked.
# The test and the HPLC procedure were carried out analogously to the manner set forth above for determining the in vitro inhibitory action of the test substances on NEP. 10 nM phosphoramidon served as standard inhibitor in the HPLC procedure. In this test model the test substances of Formula I listed in the following Table 2 had the IC50 values given below: […]
smiles,measurement,setting,value
COc1ccc(CCNC(=O)CC(CC2(C(=O)N[C@H]3CCc4ccccc4N(CC(=O)O)C3=O)CCCC2)C(=O)O)cc1 (some centres unmarked),IC50,[1],15.5 nM
same,IC50,[2],3.4 nM
